## Antibody variant affinities, Ab-95 light chain, assay 2

Reference: Engelhart et al. 2022, doi:10.1038/s41597-022-01779-4. File: FLAb, binding data.

Antigen: PDVDLGDISGINAS, a 14-residue peptide of the SARS-CoV-2 spike HR2 region.

Parent scFv Ab-95: VH joined to VL by the linker GGGGSGGGGSGGGGS. Changes lie in the light chain CDRs alone.
VH: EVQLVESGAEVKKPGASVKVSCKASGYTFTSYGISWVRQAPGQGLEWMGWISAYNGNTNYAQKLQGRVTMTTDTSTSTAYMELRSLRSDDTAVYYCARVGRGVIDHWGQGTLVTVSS
VL: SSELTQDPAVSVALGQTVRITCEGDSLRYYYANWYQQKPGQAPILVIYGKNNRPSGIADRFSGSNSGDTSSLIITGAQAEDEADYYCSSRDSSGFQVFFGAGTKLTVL

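Library AAYL52 holds single substitutions and randomly drawn double and triple substitutions in the CDRs. In AlphaSeq, yeast of one mating type display the scFv and yeast of the other type display the target. The frequency of each diploid, read from paired DNA barcodes, reflects how well the two displayed proteins bind. Each replicate has its own calibration line, from reference interactions of the BCL2 family. The assay was run in three technical replicates.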

The parent's light chain CDRs are EGDSLRYYYAN, GKNNRPS, SSRDSSGFQVF; each variant's own CDRs replace them letter for letter.
Scale: log10 of Kd in nM, estimated from mating counts; low values are strong binders.
Averages over replicates are reported, and they cover detected replicates only.
"n.d." marks a missing value. The strain was present, yet no cells mated with the target were sequenced in that replicate, which points to weak or no binding.
As a blank, each scFv also met three strains without target: over library AAYL52, 28% of these pairings were detected, typically at 3.91 and seldom below 2.90. For each scFv, signals with the empty controls are counted beside the result, with their mean in brackets.

| CDR-L1 | CDR-L2 | CDR-L3 | replicates, log10 nM | log10 Kd (nM), mean | signal with controls |
|---|---|---|---|---|---|
| EGDSLTYYYAN | GKNNRPS | SSWDSSGFQVF | n.d. 2.98 n.d. | 2.98 | 1 of 9 (4.43) |
| EGDSLRYYYAN | GKNVRPS | VSRDNSGFQVF | n.d. 2.45 2.37 | 2.41 | 1 of 9 (3.27) |
| EGDSLRYYCAN | GKNGRPA | SSRDSSGFQVF | 2.41 2.06 1.88 | 2.12 | 3 of 9 (4.27) |
| FGDSLRYEYAN | GKNNRMS | SSRDSSGFQVF | 1.39 1.42 1.04 | 1.28 | 2 of 9 (4.56) |
| EGDSVRYYYAN | GSNNRPS | SSRDSSGDQVF | 4.82 n.d. n.d. | 4.82 | 5 of 9 (4.61) |
| EGDSLRYYYAN | GKNNEES | SSRDSSGFQVF | 4.60 4.11 2.92 | 3.88 | 2 of 9 (3.32) |
| VGDSLRYYYAN | GKNNRPS | SSRDVSGFQTF | 2.96 2.30 2.79 | 2.68 | 2 of 9 (2.84) |
| EGDSLRYKYAN | GKGNRPS | SSRDSSGKQVF | n.d. n.d. n.d. | n.d. | 1 of 9 (3.29) |
| EGDSLLEYYAN | GKNNRPS | SSRDSSGFQVP | n.d. n.d. n.d. | n.d. | 3 of 9 (3.10) |
| EHDSLRYIYAK | GKNNRPS | SSRDSSGFQVF | n.d. n.d. 4.25 | 4.25 | 5 of 9 (4.12) |
| EGDSLRYWYAP | GKNNRPS | SSCDSSGFQVF | 4.29 n.d. n.d. | 4.29 | 2 of 9 (2.79) |
| EGDSLRYYYAN | GKNNRPS | SKRDSSGEQPF | 2.30 2.71 2.35 | 2.45 | 2 of 9 (4.18) |
| EGQSLRYYYAN | GKNNRPS | SSRDSSWFQVF | 3.34 3.39 2.94 | 3.22 | 3 of 9 (4.10) |
| EFDSLRYYYAN | GDNNRPS | SSRDSSGHQVF | 2.84 3.60 2.95 | 3.13 | 2 of 9 (5.03) |
| EGDSLRYYYAN | GKNNRPS | SSRDQSGFEVF | 2.14 2.83 2.40 | 2.46 | 4 of 9 (3.89) |
| EGDWLRYYYSN | GKNNRPD | SSRDSSGFQVF | 1.28 1.29 0.92 | 1.16 | 2 of 9 (3.51) |
| EGDSLRYYDAN | GKNNRKS | SSRDSSGFQVT | 2.71 4.36 2.05 | 3.04 | 2 of 9 (4.05) |
| EGDSLRYYYAN | GKNNRPV | SSEDASGFQVF | n.d. 3.48 n.d. | 3.48 | 0 of 9 |
| EGDSLRDYYAN | GKNNRPS | SSRDSSKFNVF | 2.23 1.79 1.95 | 1.99 | 4 of 9 (4.59) |
| EGDSLRYYYAN | GKNNMPS | SWRDSSGWQVF | n.d. n.d. n.d. | n.d. | 2 of 9 (3.48) |
| EGDSLRYYYAN | GKNNRLS | SRRDSSGFQVL | 4.53 4.72 2.87 | 4.04 | 1 of 9 (3.85) |
| EGDSLRYEYAN | GKNNTHS | SSRDSSGFQVF | 2.95 2.58 2.42 | 2.65 | 3 of 9 (3.68) |
| EGDSLMYYYAN | GKNNRPS | SSRPSHGFQVF | 2.88 2.52 3.88 | 3.09 | 5 of 9 (3.85) |
| EGDSLRYYLAN | GKHNRPS | SSRNSSGFQVF | 3.96 2.93 n.d. | 3.44 | 0 of 9 |
| KGDSIRYYYAN | GKNNRPS | SSRRSSGFQVF | n.d. 4.67 n.d. | 4.67 | 2 of 9 (3.87) |
| EGDSLRYYEAN | GKNNRPS | SSRDDSGFQVR | 1.58 1.56 1.23 | 1.46 | 4 of 9 (3.90) |
| EGDSSRYYYAN | GKRNRPS | SKRDSSGFQVF | 4.07 4.30 n.d. | 4.18 | 3 of 9 (3.66) |
| EGDSLRYYYAN | GKNKRPS | SSRDLSGFQVF | 2.58 2.95 2.78 | 2.77 | 4 of 9 (4.12) |
| EGDSLRYYYAN | GKNNRPS | NSRDSSGIQEF | 3.06 3.05 3.35 | 3.16 | 4 of 9 (3.95) |
| EGDILRQYYAN | GKNNRPS | SSRDISGFQVF | n.d. 4.21 4.30 | 4.26 | 3 of 9 (3.39) |
| EGDSLRYYDAN | GKNNRPS | SSRDSYGFKVF | 1.68 1.65 1.25 | 1.52 | 3 of 9 (3.83) |
| EGDSLRYYYAN | GKQNRPS | SSRDSSLFHVF | 4.38 4.37 3.00 | 3.92 | 4 of 9 (3.62) |
| EGDSERYYYAN | GKNNRPS | SSRDSSGFQVD | n.d. 4.19 n.d. | 4.19 | 6 of 9 (3.58) |
| EGDSLRYYYYN | GCNNRPS | SSWDSSGFQVF | n.d. n.d. n.d. | n.d. | 1 of 9 (3.55) |
| EGDSLRYYYAN | GKNNRPS | SSIDTPGFQVF | 5.69 n.d. 4.71 | 5.20 | 3 of 9 (3.92) |
| EGDSLRYYYAN | GSNNTPS | SSRPSSGFQVF | n.d. n.d. n.d. | n.d. | 3 of 9 (3.54) |
| EGDSLRYYLAN | GKNPRPS | SSRDSSGFQVK | n.d. 5.41 n.d. | 5.41 | 2 of 9 (3.71) |
| WGDSLRDYYAL | GKNNRPS | SSRDSSGFQVF | n.d. n.d. n.d. | n.d. | 2 of 9 (3.76) |
| EGDSLRYYYAR | IKNNRPI | SSRDSSGFQVF | n.d. n.d. n.d. | n.d. | 0 of 9 |
| EGDSLRYYYAN | GKNNRPS | SSRDSSGQQVF | 2.68 2.50 2.27 | 2.48 | 2 of 9 (3.26) |
| EGDALRYYYLN | GKNNRPS | SSCDSSGFQVF | 4.85 4.42 3.25 | 4.17 | 4 of 9 (3.41) |
| EGDSLRYYYAN | GKCNRPS | SSRDSSAWQVF | 3.96 n.d. 3.35 | 3.65 | 2 of 9 (3.59) |
| EGDSLRKYYAL | GKNNRPS | SARDSSGFQVF | 3.56 n.d. n.d. | 3.56 | 2 of 9 (3.39) |
| EGDSLRYYYAN | GKNNRPS | SSRDTSGTQGF | 2.22 2.09 2.11 | 2.14 | 4 of 9 (3.59) |
| AGPSLRYYYAN | GKNNRPS | SSRDSAGFQVF | 2.78 2.72 2.23 | 2.58 | 5 of 9 (3.69) |
| EGDSLRYYYAN | GKNKRPS | SSRDSSGFWVF | 3.39 3.17 3.45 | 3.34 | 5 of 9 (4.27) |
| EGDPLRYYYAN | GKNNRPS | SSRDSSGFQVF | 2.24 2.20 1.93 | 2.12 | 4 of 9 (3.47) |
| EGDSLRYYYPG | GKNNEPS | SSRDSSGFQVF | 4.24 n.d. n.d. | 4.24 | 1 of 9 (5.27) |
| EGDSLRAYYAN | GKNHRPS | SSRDSSGFQVE | 2.64 2.80 1.99 | 2.48 | 3 of 9 (3.25) |
| EGDSLRLYYAC | GKNNRGS | SSRDSSGFQVF | n.d. 3.78 3.71 | 3.75 | 3 of 9 (4.02) |
| LGDSLRYYYAN | GKNNRPS | SSIDSSGFQGF | 3.52 3.78 4.37 | 3.89 | 5 of 9 (3.55) |
| EGYALRYYYAN | GKNNKPS | SSRDSSGFQVF | 3.40 3.34 3.12 | 3.29 | 2 of 9 (3.13) |

From the list, the first 7 with no signal in any replicate:

| CDR-L1 | CDR-L2 | CDR-L3 | replicates, log10 nM | log10 Kd (nM), mean | signal with controls |
|---|---|---|---|---|---|
| EGDSLRYKYAN | GKGNRPS | SSRDSSGKQVF | n.d. n.d. n.d. | n.d. | 1 of 9 (3.29) |
| EGDSLLEYYAN | GKNNRPS | SSRDSSGFQVP | n.d. n.d. n.d. | n.d. | 3 of 9 (3.10) |
| EGDSLRYYYAN | GKNNMPS | SWRDSSGWQVF | n.d. n.d. n.d. | n.d. | 2 of 9 (3.48) |
| EGDSLRYYYYN | GCNNRPS | SSWDSSGFQVF | n.d. n.d. n.d. | n.d. | 1 of 9 (3.55) |
| EGDSLRYYYAN | GSNNTPS | SSRPSSGFQVF | n.d. n.d. n.d. | n.d. | 3 of 9 (3.54) |
| WGDSLRDYYAL | GKNNRPS | SSRDSSGFQVF | n.d. n.d. n.d. | n.d. | 2 of 9 (3.76) |
| EGDSLRYYYAR | IKNNRPI | SSRDSSGFQVF | n.d. n.d. n.d. | n.d. | 0 of 9 |